The test system of data set [1] is fluorometric derivative of substrate S1 (HAE-PT).
The test system of data set [2] is thrombin tripeptide substrate tosyl-gly-pro-arg-amino methyl coumarin (Sigma).
The subject of data set [3] is fluorometric derivative of substrate S2 (PT: NH2-GGVR).

Here are results for one substance from patent US20050074865.

Take “human alpha thrombin, commercial standard (Sigma)”: the “specificity constant kcat/KM” value in data set [1] was found to be 8.9e+06 M⁻¹ s⁻¹; in data set [3] it was 1.03e+07 M⁻¹ s⁻¹. The “KM for the tripeptide substrate, fluorometric assay of released AMC, substrate 0-50 µM, Line-Weaver-Burke plot” value in data set [2] was “commercially available human thrombin and the activated model adzyme had comparable KM values for this standard substrate, 4.2 µM and 3.9 µM, respectively”.
